Read-out in test [1]: Vascular endothelial growth factor receptor 2 (Homo sapiens) (UniProt P35968)
Nature of the test: BSK_4H_VEGFRII: BioMAP Diversity Plus: 4H Assay for Vascular endothelial growth factor receptor 2 (VEGFR2) Biomarker Activity (AID 2283031). Particulars: actives raise or lower the signal; primary human endothelial cells (HUVEC). The gist of the method: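 ELISA read-out of VEGFRII in primary human umbilical vein endothelium, taken 24 h after chemical treatment. Responses are expressed relative to DMSO, with bidirectional fitting.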

Read-out in test [2]: Human Leukocyte Antigen - DR isotype (HLADR), HLA-DRA (gene 3122)
Nature of the test: BSK_BE3C_HLADR: BioMAP Diversity Plus: BE3C Assay for Human Leukocyte Antigen - DR isotype (HLADR) Biomarker Activity (AID 2283032). Particulars: actives raise or lower the signal; primary human bronchial epithelial cells. The procedure, abridged:
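Cell-surface HLA-DR ELISA readout at 24 h after dosing in the BE3C primary human lung bronchial epithelial system; gain or loss of signal against DMSO, with parallel sulforhodamine B staining of total protein for overt cytotoxicity.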

Read-out in test [3]: Vascular cell adhesion molecule 1 (VCAM1), VCAM1 (gene 7412)
Description: BSK_4H_VCAM1: BioMAP Diversity Plus: 4H Assay for Vascular cell adhesion molecule 1 (VCAM1) Biomarker Activity (AID 2283033).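 As to outcome: cell-surface VCAM-1 protein measured by ELISA.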 To be noted: actives raise or lower the signal; primary human endothelial cells (HUVEC). The procedure, abridged:
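VCAM-1 ELISA read 24 h after chemical dosing of HUVEC in the BioMAP 4H system, with gain or loss of signal fitted relative to DMSO. Parallel SRB staining (560 nm) checked overt cytotoxicity.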

Read-out in test [4]: Interferon-gamma inducible Protein 10 (IP10), CXCL10 (gene 3627)
Nature of the test: BSK_BE3C_IP10: BioMAP Diversity Plus: BE3C Assay for Interferon-gamma inducible Protein 10 (IP10) Biomarker Activity (AID 2283034). To be noted: actives raise or lower the signal; primary human bronchial epithelial cells. The gist of the method:
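IP-10 quantified by ELISA in human primary bronchial epithelial cell cultures at 24 hours post-dosing. Gain or loss of signal fitted relative to DMSO; parallel SRB staining assessed overt cytotoxicity.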

Read-out in test [5]: Monokine induced gamma interferon (MIG), CXCL9 (gene 4283)
Description: BSK_BE3C_MIG: BioMAP Diversity Plus: BE3C Assay for Monokine induced gamma interferon (MIG) Biomarker Activity (AID 2283035). Particulars: actives raise or lower the signal; primary human bronchial epithelial cells. The gist of the method: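 hu bronchial epithelial 1° cells, 24 h cpd; MIG by ELISA; bidirectional fit, DMSO = baseline.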

Read-out in test [6]: Transforming growth factor beta 1 (TGFb1), TGFB1 (gene 7040)
Nature of the test: BSK_BE3C_TGFb1: BioMAP Diversity Plus: BE3C Assay for Transforming growth factor beta 1 (TGFb1) Biomarker Activity (AID 2283036;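 also: TGF-b1 protein level measured by ELISA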). Particulars: actives raise or lower the signal; primary human bronchial epithelial cells. The procedure, abridged: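 ELISA readout of TGF-b1 from human lung bronchial epithelial primary cells, taken 24 h post-treatment. Gain or loss of signal fitted relative to DMSO baseline, with parallel SRB staining for overt cytotoxicity.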

Read-out in test [7]: Plasminogen activator inhibitor-1 (PAI1), SERPINE1 (gene 5054)
Description: BSK_BE3C_PAI1: BioMAP Diversity Plus: BE3C Assay for Plasminogen activator inhibitor-1 (PAI1) Biomarker Activity (AID 2283037). Particulars: actives raise or lower the signal; primary human bronchial epithelial cells. The procedure, abridged:
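PAI-1 was measured by ELISA in human primary bronchial epithelial cultures 24 h after chemical dosing, with cytotoxicity checked by SRB total-protein staining in parallel cultures. Activity was fitted in both directions relative to DMSO.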

Read-out in test [8]: urokinase plasminogen activator (uPA), PLAU (gene 5328)
Description: BSK_BE3C_uPA: BioMAP Diversity Plus: BE3C Assay for urokinase plasminogen activator (uPA) Biomarker Activity (AID 2283038).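 As to outcome: uPA protein level quantified by ELISA in cell cultures; uPA read one day after compound addition.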 Particulars: actives raise or lower the signal; primary human bronchial epithelial cells. The gist of the method:
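Bronchial epithelial cells (human, primary); chemical 24 h; uPA by ELISA; bidirectional fit vs DMSO. SRB (0.1%, after 10% TCA fixation, 560 nm) in parallel cultures for cytotoxicity.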

Read-out in test [9]: Urokinase-type plasminogen activator receptor (uPAR), PLAUR (gene 5329)
Nature of the test: BSK_BE3C_uPAR: BioMAP Diversity Plus: BE3C Assay for Urokinase-type plasminogen activator receptor (uPAR) Biomarker Activity (AID 2283039).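 Also: cells exposed to compound for one day before measurement.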 Particulars: actives raise or lower the signal; primary human bronchial epithelial cells. The procedure, abridged: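 uPAR levels were measured by ELISA after 24 h compound treatment of primary human bronchial epithelial cells, fitted in both directions relative to DMSO. Parallel SRB staining served as the cytotoxicity read-out.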

Read-out in test [10]: Interleukin-6 (IL6), IL6 (gene 3569)
Nature of the test: BSK_CASM3C_IL6: BioMAP Diversity Plus: CASM3C Assay for Interleukin-6 (IL6) Biomarker Activity for (AID 2283040). Particulars: actives raise or lower the signal; primary human coronary artery smooth muscle cells.

Read-out in test [11]: Tissue plasminogen activator (tPA), PLAT (gene 5327)
Nature of the test: BSK_BE3C_tPA: BioMAP Diversity Plus: BE3C Assay for Tissue plasminogen activator (tPA) Biomarker Activity (AID 2283041).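 Also: tPA level quantified by ELISA one day after compound addition.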 To be noted: actives raise or lower the signal; primary human bronchial epithelial cells. The procedure, abridged: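 tPA measured by ELISA 24 h after dosing human primary bronchial epithelial cells (BE3C system). Changes in either direction were fitted against DMSO. Parallel cultures were stained with SRB to flag overt cytotoxicity.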

Read-out in test [12]: Interleukin-8 (IL8), CXCL8 (gene 3576)
Description: BSK_CASM3C_IL8: BioMAP Diversity Plus: CASM3C Assay for Interleukin-8 (IL8) Biomarker Activity (AID 2283042).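 Also: IL-8 protein level quantified by ELISA.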 Particulars: actives raise or lower the signal; primary human coronary artery smooth muscle cells.

Read-out in test [13]: Human Leukocyte Antigen - DR isotype (HLADR), HLA-DRA (gene 3122)
Nature of the test: BSK_CASM3C_HLADR: BioMAP Diversity Plus: CASM3C Assay for Human Leukocyte Antigen - DR isotype (HLADR) Biomarker Activity (AID 2283043).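 Also: cell-surface HLA-DR protein level quantified by ELISA.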 Particulars: actives raise or lower the signal; primary human coronary artery smooth muscle cells.

Read-out in test [14]: Macrophage colony-stimulating factor (MCSF), CSF1 (gene 1435)
Nature of the test: BSK_CASM3C_MCSF: BioMAP Diversity Plus: CASM3C Assay for Macrophage colony-stimulating factor (MCSF) Biomarker Activity (AID 2283044).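 Also: M-CSF protein amount quantified by ELISA after 24 h exposure.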 Particulars: actives raise or lower the signal; primary human coronary artery smooth muscle cells.

Read-out in test [15]: Low-density lipoprotein receptor (LDLR), LDLR (gene 3949)
Description: BSK_CASM3C_LDLR: BioMAP Diversity Plus: CASM3C Assay for Low-density lipoprotein receptor (LDLR) Biomarker Activity (AID 2283045).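 Also: LDLR protein level on the cell surface quantified by ELISA.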 To be noted: actives raise or lower the signal; primary human coronary artery smooth muscle cells.

Read-out in test [16]: Monocyte Chemoattractant Protein-1 (MCP1), CCL2 (gene 6347)
Description: BSK_CASM3C_MCP1: BioMAP Diversity Plus: CASM3C Assay for Monocyte Chemoattractant Protein-1 (MCP1) Biomarker Activity (AID 2283046).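 Also: MCP-1 level quantified by ELISA 24 h after dosing.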 Particulars: actives raise or lower the signal; primary human coronary artery smooth muscle cells.

Test [17] can be described thus: BSK_CASM3C_Proliferation: Cell Proliferation Assessment in the BioMAP Diversity Plus: CASM3C Assay (AID 2283047).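 Also: sulforhodamine B total protein stain as relative cell number at 560 nm; sub-confluent cells exposed 48 h before staining; fitted both ways against DMSO so gain or loss of cell number.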 Particulars: primary human coronary artery smooth muscle cells.
Read-out in test [18]: Monokine induced gamma interferon (MIG), CXCL9 (gene 4283)
Nature of the test: BSK_CASM3C_MIG: BioMAP Diversity Plus: CASM3C Assay for Monokine induced gamma interferon (MIG) Biomarker Activity (AID 2283048).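 Also: MIG protein level measured by ELISA.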 Particulars: actives raise or lower the signal; primary human coronary artery smooth muscle cells.

Read-out in test [19]: serum amyloid A (SAA), SAA1 (gene 6288)
Nature of the test: BSK_CASM3C_SAA: BioMAP Diversity Plus: CASM3C Assay for serum amyloid A (SAA) Biomarker Activity (AID 2283049).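 Also: SAA protein level quantified by ELISA.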 To be noted: actives raise or lower the signal; primary human coronary artery smooth muscle cells.

The nature of test [20]: BSK_CASM3C_SRB: Viability Assessment in the BioMAP Diversity Plus: CASM3C Assay (AID 2283050). To be noted: primary human coronary artery smooth muscle cells.

Only a part is listed here, and it is no random draw. The source made the active and inactive calls. The calls were made as follows: active = hit-call score of the fitted dose curve at least 0.9, where 1 is the maximum; inactive = score below 0.9.

Turning to `Cc1ccc([N+](=O)[O-])cc1[N+](=O)[O-]`, the outcome in test [1], in [2], in [3], in [4], in [5] and in test [6] was inactive. The result in test [7], in [8], in [9], in test [10], in test [11] and in test [12] was inactive. The result in test [13], in test [14], in [15], in test [16], in test [17] and in [18] was inactive. In addition, the result in test [19] and in [20] was inactive.
Consider `Cc1ccc([N+](=O)[O-])c([N+](=O)[O-])c1`, for which the outcome in test [1], in [5], in test [6], in test [7], in test [9] and in test [10] was inactive. Further, the result in [11], in test [12], in [13], in test [14], in test [15] and in test [16] was inactive. Besides, the outcome in test [17], in test [18], in test [19] and in [20] was inactive. The AC50 in test [2] is active: 25.4 µM; in test [3], active: 6.18 µM; in test [8], active: 0.394 µM.
In the case of `Cc1cccc([N+](=O)[O-])c1[N+](=O)[O-]`, the result in test [1], in test [2], in test [4], in test [5], in test [6] and in [7] was inactive. For the same compound, the outcome in test [8], in test [9], in test [10], in test [11], in [12] and in test [14] was inactive. For the same compound, the result in test [15], in test [16], in test [18], in test [19] and in test [20] was inactive. In addition, the AC50 is active: 5.37 µM in [3], active: 8.93 µM in test [13] and active: 14.3 µM in test [17].
Consider `CC(C)OP(C)(=O)OC(C)C`, for which the outcome in test [1], in [2], in test [3], in [4], in [5] and in [6] was inactive. Also, the outcome in test [7], in test [8], in [9], in test [10], in test [11] and in test [12] was inactive. The result in [14], in [16], in [18], in test [19] and in test [20] was inactive. The results for the AC50 in test [13], in test [15] and in [17] were active: 14 µM, active: 20 µM and active: 20 µM, respectively.
In the case of `O=[N+]([O-])c1cccc([N+](=O)[O-])c1`, the outcome in test [1], in [2], in [3], in test [4], in [5] and in [6] was inactive. Moreover, the outcome in test [7], in test [8], in test [9], in test [10], in test [11] and in test [12] was inactive. Further, the outcome in test [13], in test [14], in [15], in test [16], in [17] and in test [18] was inactive. In addition, the result in test [19] and in [20] was inactive.
`Cc1c([N+](=O)[O-])cccc1[N+](=O)[O-]`: the result in test [1], in test [2], in test [3], in test [4], in test [5] and in test [6] was inactive. Moreover, the result in test [7], in test [8], in [9], in test [10], in test [11] and in test [12] was inactive. For the same compound, the result in [13], in test [14], in test [15], in [16], in test [17] and in test [18] was inactive. Further, the outcome in test [19] and in [20] was inactive.

The record behind these values is PubChem BioAssay (EPA / NIEHS).
